Molecules are shown by their SMILES.

The chains behind the UniProt entries cited, without tags or fusion partners. Where a name states a change or a piece, a line headed by the entry shows the natural chain unless it says otherwise.
UniProt P28335: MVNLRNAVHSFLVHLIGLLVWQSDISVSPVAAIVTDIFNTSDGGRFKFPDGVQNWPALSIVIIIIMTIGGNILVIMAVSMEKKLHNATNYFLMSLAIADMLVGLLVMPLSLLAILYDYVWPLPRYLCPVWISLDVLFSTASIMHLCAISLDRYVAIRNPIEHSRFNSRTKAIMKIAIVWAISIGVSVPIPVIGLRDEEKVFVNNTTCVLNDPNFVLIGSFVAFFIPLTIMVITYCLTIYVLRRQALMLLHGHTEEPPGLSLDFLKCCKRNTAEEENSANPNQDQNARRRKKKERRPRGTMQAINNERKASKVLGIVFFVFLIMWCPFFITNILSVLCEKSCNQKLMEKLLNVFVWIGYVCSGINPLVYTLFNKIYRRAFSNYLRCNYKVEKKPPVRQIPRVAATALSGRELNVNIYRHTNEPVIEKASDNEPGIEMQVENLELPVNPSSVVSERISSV
UniProt P28223, whole entry: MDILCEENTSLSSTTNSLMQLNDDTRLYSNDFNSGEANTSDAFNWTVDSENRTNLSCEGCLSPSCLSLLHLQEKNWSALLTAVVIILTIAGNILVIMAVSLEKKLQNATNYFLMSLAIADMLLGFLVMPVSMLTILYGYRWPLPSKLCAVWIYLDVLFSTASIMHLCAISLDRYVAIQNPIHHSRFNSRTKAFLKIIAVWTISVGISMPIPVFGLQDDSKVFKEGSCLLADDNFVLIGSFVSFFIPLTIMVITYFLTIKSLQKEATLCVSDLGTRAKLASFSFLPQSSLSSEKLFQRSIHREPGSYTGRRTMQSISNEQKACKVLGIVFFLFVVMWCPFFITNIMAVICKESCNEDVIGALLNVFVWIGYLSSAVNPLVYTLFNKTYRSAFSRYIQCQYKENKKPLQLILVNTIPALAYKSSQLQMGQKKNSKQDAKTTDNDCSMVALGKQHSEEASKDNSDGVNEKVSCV

Assay [1] has as its target 5-hydroxytryptamine receptor 2C (Homo sapiens, UniProt P28335). Kind of assay: Displacement of [3H]Mesulergine from human 5-HT2C-INI receptor expressed in HEK293 cells by scintillation counting analysis. The class given is cell-based. For orientation: Loss of bound radioactivity is the signal in a displacement assay; it reports binding, not function.
The target of assay [2] is 5-hydroxytryptamine receptor 2A (Homo sapiens, UniProt P28223). Kind of assay: Displacement of [3H]Ketanserin from human 5-HT2A receptor expressed in HEK293 cells by scintillation counting analysis. The class given is cell-based.

Take `CN(C)[C@H]1Cc2ccccc2[C@H](C2CCCCCCC2)C1`: the figures for the Ki in assay [1] and in assay [2] were 800 nM and 370 nM, respectively.
Turning to `CN(C)[C@H]1Cc2ccccc2[C@H](c2cccc(F)c2)C1`, the affinity in assay [2], expressed as Ki, was 320 nM.
Same read-out and setting: as for `CN(C)[C@H]1Cc2ccccc2[C@H](c2cccc(-c3ccccc3)c2)C1`, the figure is 650 nM.

(Values after ChEMBL document CHEMBL3400036, “Novel 4-substituted-N,N-dimethyltetrahydronaphthalen-2-amines: synthesis, affinity, and in silico docking studies at serotonin 5-HT2-type and histamine H1 G protein-coupled receptors” (Bioorg Med Chem, 2015).)
